Test results: article PMC6585649 (Clinical Pharmacology in Drug Development, 2018)

Assay: Multiple-dose
Format: in vivo, human (healthy subjects)

dose proportionality of exposure (15 to 30 mg once-daily ER regimens): dose‐proportional
Compound: CC[C@@H]1CN(C(=O)NCC(F)(F)F)C[C@@H]1c1cnc2cnc3[nH]ccc3n12 [Upadacitinib]
accumulation in plasma (multiple once-daily dosing, ER formulation): lack of accumulation; also recorded: no accumulation

Entries after “also recorded” stand apart in the source; their conditions may differ.
